From patent US20130058943A1 (published 2013)

Sequences of proteins named here, by UniProt entry; tags and fusion partners are left off. Residues count along the entry.
UniProt P01375, 77-233: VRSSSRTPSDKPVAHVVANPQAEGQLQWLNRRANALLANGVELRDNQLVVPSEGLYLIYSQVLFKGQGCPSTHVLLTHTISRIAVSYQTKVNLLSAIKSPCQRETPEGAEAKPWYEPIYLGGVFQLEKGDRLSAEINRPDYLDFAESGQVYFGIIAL

Assays:
recombinant human TNF [1] = molecular target: T1, recombinant human TNF (human, UniProt P01375 77-233); experiment: table head: EC50 in TNF ELISA; the text that introduces the table speaks of the L929 neutralization assay
T1 construct: Bought (Cell Sciences); also called rhTNF; hTNF

recombinant human TNF [2] = molecular target: T1, recombinant human TNF; experiment: competition ELISA: antibody preincubated with soluble TNF, then on TNF-coated plates

EC50 (recombinant human TNF [1]): 0.076 µg/mL | Kd (recombinant human TNF [2]): 0.2 nM
B1: infliximab (antibody, V domains shown)
VH: EVKLEESGGGLVQPGGSMKLSCVASGFIFSNHWMNWVRQSPEKGLEWVAEIRSKSINSATHYAESVKGRFTISRDDSKSAVYLQMTDLRTEDTGVYYCSRNYYGSTYDYWGQGTTLTVSS
VL: DILLTQSPAILSVSPGERVSFSCRASQFVGSSIHWYQQRTNGSPRLLIKYASESMSGIPSRFSGSGSGTDFTLSINTVESEDIADYYCQQSHSWPFTFGSGTNLEVKR
